Our source for the stoichiometry N, share of counts as dimer and share of counts as hexamer values is article PMC9984387, “The dynamic nature of netrin-1 and the structural basis for glycosaminoglycan fragment-induced filament formation” (Nature Communications, 2023).

Values joined by “and” are separate entries in the source; they are usually repeats but may differ in a detail not shown here. Equal entries are not always repeated. A value given as a limit tells only on which side of the number the result lay.

Assay [1] deals with NET1ΔC (netrin-1 domains LN and LE, Gallus gallus, aa 26-458), tag-free (Gallus gallus) (UniProt Q90922). As to the kind of experiment: SEC-SAXS; tag-free NET1ΔC (9.23 mg/ml, 186 µM) with HO-dp8 or HO-dp10; 50 mM tris, pH 7.5, 0.2 M NaCl. Background: Size exclusion chromatography separates by hydrodynamic size, large species first.
The target is the same in assay [2]. Put plainly: AUC; sedimentation velocity, 13 µM NET1ΔC with equimolar or twofold molar excess of HO-dp8; 50 mM tris, pH 7.5, 200 mM NaCl.
The target is the same in assay [3]. Put plainly: mass photometry; NET1ΔC incubated overnight with equimolar HO-dp8 (5 μM), diluted to 100 nM; 50 mM tris pH 8.5, 200 mM NaCl.
Assay [4] has the same target. Put plainly: mass photometry; NET1ΔC incubated overnight with equimolar HO-dp10 (5 μM), diluted to 100 nM; 50 mM tris pH 8.5, 200 mM NaCl.
Assay [5] has the same target. Put plainly: AUC; sedimentation velocity, 13 µM NET1ΔC without heparin oligosaccharides; 50 mM tris, pH 7.5, 200 mM NaCl; monomer to dimer.
For assay [6] the target is unchanged. As to the kind of experiment: SEC-MALS; NET1ΔC without heparin oligosaccharides; 3–5 mg/ml injected; 50 mM tris, pH 7.5, 200 mM NaCl, 25 °C; monomer to dimer.
Assay [7] shares this target. As to the kind of experiment: SEC-SAXS; tag-free chicken NET1ΔC without heparin oligosaccharides, 5.8 mg/ml in 20 mM tris, pH 7.5, 500 mM NaCl or 4.5 mg/ml in 50 mM tris, pH 7.5, 200 mM NaCl; monomer to dimer.

By stoichiometry N is commonly meant a count of units in the complex or per binding partner. On to “NET1ΔC (netrin-1 domains LN and LE, Gallus gallus, aa 26-458), tag-free (from UniProt Q90922 26-458) (domain or fragment)”, for which the stoichiometry N in assay [1] was greater than 5; in assay [2], 3 and 5; in assay [3] it was 2; in assay [4] it was 6; in assay [5] it was 2; in assay [6], 2. Further, in assay [7], the stoichiometry N came to 2. For the same substance, the share of counts as dimer in assay [3] amounted to 12.4%. The share of counts as hexamer in assay [4] turned out to be 3.38%.
